Experimental data: ChEMBL document CHEMBL2375349, “Discovery of subtype selective muscarinic receptor antagonists as alternatives to atropine using in silico pharmacophore modeling and virtual screening methods” (2013)

By UniProt entry, the sequences of proteins in these tests, tags left out. Where a name states a change or a piece, a line headed by the entry shows the natural chain unless it says otherwise.
UniProt P11229: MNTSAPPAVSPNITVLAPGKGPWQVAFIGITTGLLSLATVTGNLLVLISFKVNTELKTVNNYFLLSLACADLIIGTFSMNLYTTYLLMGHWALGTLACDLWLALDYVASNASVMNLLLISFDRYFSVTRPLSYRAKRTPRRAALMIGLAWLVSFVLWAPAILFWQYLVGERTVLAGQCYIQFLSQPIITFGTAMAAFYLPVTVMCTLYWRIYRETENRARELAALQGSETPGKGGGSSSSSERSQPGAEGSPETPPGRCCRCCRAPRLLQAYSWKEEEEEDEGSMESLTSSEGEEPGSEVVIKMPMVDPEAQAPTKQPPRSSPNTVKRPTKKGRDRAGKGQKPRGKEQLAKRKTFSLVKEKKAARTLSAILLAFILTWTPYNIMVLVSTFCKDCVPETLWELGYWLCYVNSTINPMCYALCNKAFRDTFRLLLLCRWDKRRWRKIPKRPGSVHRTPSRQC
UniProt P08172, whole entry, looked up: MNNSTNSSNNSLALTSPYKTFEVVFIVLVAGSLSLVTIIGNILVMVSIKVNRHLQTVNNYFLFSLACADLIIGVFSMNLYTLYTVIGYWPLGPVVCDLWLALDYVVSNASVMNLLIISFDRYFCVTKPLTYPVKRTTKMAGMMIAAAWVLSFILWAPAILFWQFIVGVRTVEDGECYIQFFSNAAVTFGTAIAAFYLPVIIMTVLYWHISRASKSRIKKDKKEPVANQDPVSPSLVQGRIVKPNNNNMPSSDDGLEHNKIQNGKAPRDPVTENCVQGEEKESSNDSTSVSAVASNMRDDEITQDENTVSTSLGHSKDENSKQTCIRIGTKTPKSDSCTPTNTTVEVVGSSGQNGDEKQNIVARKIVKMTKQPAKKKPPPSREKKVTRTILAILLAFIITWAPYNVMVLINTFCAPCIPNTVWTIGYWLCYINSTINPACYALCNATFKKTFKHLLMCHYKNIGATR
UniProt P20309, whole entry, looked up: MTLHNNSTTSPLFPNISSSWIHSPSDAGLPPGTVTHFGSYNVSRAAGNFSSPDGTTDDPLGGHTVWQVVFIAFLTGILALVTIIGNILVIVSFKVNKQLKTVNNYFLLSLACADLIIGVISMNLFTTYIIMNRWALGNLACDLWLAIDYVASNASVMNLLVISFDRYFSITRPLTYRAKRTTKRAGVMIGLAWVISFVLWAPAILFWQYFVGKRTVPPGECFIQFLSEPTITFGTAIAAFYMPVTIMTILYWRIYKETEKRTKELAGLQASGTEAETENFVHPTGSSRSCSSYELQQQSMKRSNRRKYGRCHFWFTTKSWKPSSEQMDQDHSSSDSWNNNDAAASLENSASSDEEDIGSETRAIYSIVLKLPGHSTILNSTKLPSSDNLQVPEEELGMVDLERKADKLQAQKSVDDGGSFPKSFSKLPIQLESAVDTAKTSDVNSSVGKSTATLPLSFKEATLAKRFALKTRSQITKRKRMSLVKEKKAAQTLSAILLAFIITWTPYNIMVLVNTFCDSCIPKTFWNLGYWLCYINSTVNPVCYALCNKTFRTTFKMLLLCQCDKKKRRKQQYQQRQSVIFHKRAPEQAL

Legend:
[1] = species on record: Homo sapiens; test: Selectivity ratio of Ki for human muscarinic M4 receptor to Ki for human muscarinic M1 receptor
[2] = target: Muscarinic acetylcholine receptors; M1 & M2 (Homo sapiens) (UniProt P11229+P08172); test: Selectivity ratio of Ki for human muscarinic M2 receptor to Ki for human muscarinic M1 receptor
[3] = target: T1, Muscarinic acetylcholine receptor M1 and M3 (Homo sapiens) (UniProt P20309+P11229); test: Selectivity ratio of Ki for human muscarinic M3 receptor to Ki for human muscarinic M1 receptor
[4] = target: T1, Muscarinic acetylcholine receptor M1 and M3 (Homo sapiens); test: Selectivity ratio of Ki for human muscarinic M1 receptor to Ki for human muscarinic M3 receptor

| SMILES | Ratio Ki [1] | Ratio Ki [2] | Ratio Ki [3] | Ratio Ki [4] |
| --- | --- | --- | --- | --- |
| CCN(CC)CCOC(=O)C(CC)(c1ccccc1)c1ccccc1 | 1.78 | 1.46 | 1.46 | 0.683 |
| CCN(CC)CCOC(=O)C(C)(c1ccccc1)c1ccccc1 | 41.6 | 7.07 | 513 | 0.00195 |
| OC(CCN1CCCCC1)(c1ccccc1)C1CC2C=CC1C2 (stereo unspecified) | – | – | 2.5 | 0.397 |
| CCN(CC)CCOC(=O)c1ccccc1Sc1ccc(Cl)cc1 | – | 2.58 | 0.2 | 4.76 |
| CCN(CC)CCOC(=O)C(c1ccccc1)N1CCCCC1 (stereo unspecified) | – | 3.78 | 0.69 | 1.46 |
| CC[C@H](C)C(C(=O)OCCCN(CC)CC)c1ccccc1 (stereo partly specified) | – | – | 0.56 | 1.79 |
| CCN(CC)CCOC(=O)C(C)(c1ccccc1)c1ccc(O)cc1 (stereo unspecified) | 642 | 5.33 | 59.2 | 0.0169 |
| C[N+](C)(C)CCOC(=O)C(c1ccccc1)c1ccccc1 | 292 | – | 4.4 | 0.223 |
| CC[N+](CC)(CC)CCOC(=O)C(c1ccccc1)c1ccccc1 | – | 128 | 0.1 | 10.6 |
| CC[N+](C)(CC)CCOC(=O)C(c1ccccc1)c1ccccc1 | 98.2 | 31.2 | 16.8 | 0.0214 |
| CCN(CC)CCOC(=O)C(c1ccccc1)C1(O)CCCCC1 (stereo unspecified) | – | – | 1.08 | 0.926 |
| CC[N+](C)(CC)CCOC(=O)C(O)(c1ccccc1)c1ccccc1 | – | – | 2.7 | 0.375 |
